AlphaSeq binding of Ab-14 light chain variants to a spike HR2 peptide

From the AlphaSeq antibody data of Li et al. 2023 (doi:10.1038/s41467-023-39022-2), copy in the FLAb collection.

Target peptide (SARS-CoV-2 spike, HR2 region): PDVDLGDISGINAS

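The parent was found by panning a naive human phage display library on the peptide. The variants were designed computationally from a first round of random CDR variants and then made and measured. Several design methods are mixed in this list. The scFvs were displayed on barcoded MATa yeast, the peptide on MATalpha yeast. The frequency of each diploid, read from paired DNA barcodes, reflects how well the two displayed proteins bind. Read counts were normalised to the haploid input and turned into Kd by a linear fit to BCL2-family pairs of known affinity, for each replicate. Mating was done six times.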

Ab-14 is the parent antibody, in scFv form: VH, then a (GGGGS)3 linker, then VL. The heavy chain is unchanged in all variants.
VH: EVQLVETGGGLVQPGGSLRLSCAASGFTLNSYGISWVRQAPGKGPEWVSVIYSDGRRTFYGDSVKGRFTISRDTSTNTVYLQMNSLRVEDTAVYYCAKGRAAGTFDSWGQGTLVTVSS
VL: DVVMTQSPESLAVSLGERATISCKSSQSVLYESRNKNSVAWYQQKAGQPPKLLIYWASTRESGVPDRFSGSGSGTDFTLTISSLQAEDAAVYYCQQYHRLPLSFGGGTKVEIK

The parent's light chain CDRs are KSSQSVLYESRNKNSVA, WASTRES, QQYHRLPLS; each variant's own CDRs replace them letter for letter. Numbers give log10(Kd / nM), so 0 is 1 nM and 3 is 1 µM. Smaller is tighter. "nd" marks a missing value. The strain was present, yet no cells mated with the target were sequenced in that replicate, which points to weak or no binding. Nonspecific signal, from three strains lacking the peptide, appeared in 4% of pairings of all light chain designs, centred on 2.64 (5% of these signals below 1.59); values are not corrected for it. A sequence measured in both rounds can read differently, since the two assays cover different ranges. The authors averaged sequences with at least three values out of six and counted those with two or fewer as poor binders.

{"CDR-L1": "KFEVSMLYESRNGNSVA", "CDR-L2": "QASTRSS", "CDR-L3": "QQYHRLPLS", "log10 Kd (nM) by replicate": "0.14 / -0.47 / -0.06 / -0.18 / -1.00 / -0.61"}
{"CDR-L1": "IVSQLMLWGWHAKNSIA", "CDR-L2": "EAQTRIQ", "CDR-L3": "QQYDRLPLF", "log10 Kd (nM) by replicate": "nd / nd / nd / nd / nd / nd"}
{"CDR-L1": "KLPQSVLYESRNKNSVA", "CDR-L2": "EASTRES", "CDR-L3": "QQYHRLPLS", "log10 Kd (nM) by replicate": "-0.13 / -0.20 / -0.12 / -0.02 / -0.08 / -0.19"}
{"CDR-L1": "KALQSVLYESRNKNSVA", "CDR-L2": "HASTRED", "CDR-L3": "QQYHQLPLS", "log10 Kd (nM) by replicate": "0.52 / 0.18 / 0.44 / 0.19 / 0.19 / 0.47"}
{"CDR-L1": "KVSQSVLYEDRNKNSVA", "CDR-L2": "NASTRES", "CDR-L3": "QQYHRLPLQ", "log10 Kd (nM) by replicate": "-0.42 / -0.74 / -1.06 / -1.22 / -0.86 / -0.66"}
{"CDR-L1": "KLTQVTHSEHKNKNSIA", "CDR-L2": "EMVTREK", "CDR-L3": "QQYDRLPLS", "log10 Kd (nM) by replicate": "1.38 / 2.74 / 0.84 / 1.01 / 1.05 / 1.55"}
{"CDR-L1": "KLSFLGPYEQRNKNNVA", "CDR-L2": "SASTRCS", "CDR-L3": "QQYHRLPLS", "log10 Kd (nM) by replicate": "-0.16 / -0.58 / -0.25 / -0.39 / -0.42 / -0.22"}
{"CDR-L1": "KSGQQFLQEERNWNSVA", "CDR-L2": "DASLRES", "CDR-L3": "QQYHRLPLS", "log10 Kd (nM) by replicate": "0.56 / 0.55 / 0.94 / 0.40 / 0.52 / 0.68"}
{"CDR-L1": "MISQMYNMGQFAINSVA", "CDR-L2": "QASERNE", "CDR-L3": "QQYDRLPLT", "log10 Kd (nM) by replicate": "1.66 / 0.58 / 2.00 / 1.19 / 0.75 / nd"}
{"CDR-L1": "KVSQSMLGESRNFNSVA", "CDR-L2": "EASTREN", "CDR-L3": "QQYHRLPLS", "log10 Kd (nM) by replicate": "0.13 / 0.12 / -0.02 / -0.02 / -0.01 / 0.22"}
{"CDR-L1": "KLSQQHLMESRNKNSVA", "CDR-L2": "NASLRLS", "CDR-L3": "QCYHRLPLS", "log10 Kd (nM) by replicate": "1.05 / 0.64 / 0.16 / 0.08 / 0.66 / 0.51"}
{"CDR-L1": "KISQSVLYESMNRNAVA", "CDR-L2": "WASTRES", "CDR-L3": "QQYHGLPLS", "log10 Kd (nM) by replicate": "1.82 / 1.71 / 1.35 / 2.01 / 2.61 / 1.92"}
{"CDR-L1": "MISQLYNMGQFAINSVA", "CDR-L2": "QASIRNS", "CDR-L3": "QQYDRLPLM", "log10 Kd (nM) by replicate": "nd / nd / 1.73 / 1.47 / 2.33 / 2.84"}
{"CDR-L1": "VLPDNLLMKESQYHSIA", "CDR-L2": "NGDDRME", "CDR-L3": "QQYMRLPLM", "log10 Kd (nM) by replicate": "-0.09 / -0.12 / 0.00 / -0.07 / -0.10 / 0.07"}
{"CDR-L1": "KLMQSVLYESRNKNSVA", "CDR-L2": "GASTRLS", "CDR-L3": "QQYHRLPLS", "log10 Kd (nM) by replicate": "0.44 / 0.32 / 0.40 / 0.19 / 0.41 / 0.20"}
{"CDR-L1": "KISQMYRYEMQNHSSIA", "CDR-L2": "EANTREQ", "CDR-L3": "QSYHRLPLS", "log10 Kd (nM) by replicate": "nd / nd / 1.73 / 1.41 / nd / 3.47"}
{"CDR-L1": "KLSQSVLYGSRNKNSVA", "CDR-L2": "NASTRES", "CDR-L3": "QQYHRLPLS", "log10 Kd (nM) by replicate": "-0.21 / -0.20 / -0.35 / -0.57 / -0.37 / -0.27"}
{"CDR-L1": "KLPQSVLYESRNKNSVA", "CDR-L2": "GASTRED", "CDR-L3": "QQYHRLPLS", "log10 Kd (nM) by replicate": "0.04 / 0.12 / -0.02 / -0.04 / 0.12 / -0.04"}
{"CDR-L1": "KQSQEVLYESRNKNSVA", "CDR-L2": "DASTRES", "CDR-L3": "QQYHRLPLS", "log10 Kd (nM) by replicate": "0.02 / 0.02 / -0.04 / -0.30 / -0.35 / -0.17"}
{"CDR-L1": "NLSIQCQHQNMSANAVA", "CDR-L2": "QTEIRCV", "CDR-L3": "QQYAQLPLA", "log10 Kd (nM) by replicate": "2.56 / 2.67 / 2.17 / 2.15 / 1.96 / 3.27"}

Top 2 of the variants detected in all replicates, tightest first:

CDR-L1	CDR-L2	CDR-L3	log10 Kd (nM) by replicate
KVSQSVLYEDRNKNSVA	NASTRES	QQYHRLPLQ	-0.42 / -0.74 / -1.06 / -1.22 / -0.86 / -0.66
KFEVSMLYESRNGNSVA	QASTRSS	QQYHRLPLS	0.14 / -0.47 / -0.06 / -0.18 / -1.00 / -0.61